The values that follow come from patent US9409907B2, “Inhibitor compounds” (Cancer Research Technology Limited, priority 2012, dated 2016).

Read-outs that look alike come from different tables or passages of the source.

In this experiment the target is full length MPS1 (Homo sapiens (Human), UniProt P33981). The experiment in a line: Measurement of inhibition of MPS1 kinase (Caliper EZ reader mobility-shift enzyme assay). It is filed as biochemical. As for the experimental part:
Measurement of Inhibition of MPS1 Kinase
The reaction was carried out for 60 min at room temperature and stopped by the addition of buffer (10 μl) containing 20 mM EDTA, 0.05% (v/v) Brij-35, in 0.1M HEPES-buffered saline (Free acid, Sigma, UK). The plate was read on a Caliper EZ reader II (Caliper Life Sciences).
The % inhibition of the compounds is calculated relative to the means of selected control wells.

As to `COc1cc(-c2cnn(C)c2)ccc1Nc1ncc2ccnc(N3CCOC(C)C3)c2n1` (racemic) [Example 137, Racemic N-(2-Mthoxy-4-(1-methyl-1H-pyrazol-4-yl)phenyl)-8-(2-methylmorpholino)pyrido[3,4-d]pyrimidin-2-amine], the half-maximal inhibitory concentration (IC50) (full length MPS1 12.5 nM or 3 nM, H236 peptide 5 μM, ATP 10 μM, 60 min at room temperature, read-out: MPS1 IC50) amounted to 7 nM.

On to `COc1cc(-c2cnn(C)c2)ccc1Nc1ncc2ccnc(NCC(C)O)c2n1` (racemic) [Example 128, Racemic 1-(2-(2-Methoxy-4-(1-methyl-1H-pyrazol-4-yl)phenylamino)pyrido[3,4-d]pyrimidin-8-ylamino)propan-2-ol], for which the IC50 came out at 8 nM.
